“And” between values parts separate entries of the source, which are not always exact repeats. Equal values may be shown once. The list shows a part of the results, in another mix than the full data.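 For each line, cells grew in 96-well plates with the test compound present at a single concentration for 48 hours.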 The source made the active and inactive calls. How the source made its calls: active means growth percent below 10; inactive means the rest.
The compounds below were run on MDA-MB-468 breast (assay: NCI-60 one-dose screen, 48 h (100 = growth as untreated, 0 = no growth, -100 = all killed)). Settings: 10 µM unless noted.

| Structure (SMILES) | growth |
| --- | --- |
| COC(=O)N(C)[N+](=O)[O-] | inactive: 102% |
| O=[As](O)(c1cccc(O)c1)c1cccc(O)c1 | inactive: 97.7% |
| ClCC1CS1 (centres undefined) | inactive: 105% |
| CC1CCNP(=O)(N(CCCl)CCCl)O1 (centres undefined) | inactive: 107% |
| CCOP(=O)(Nc1ccccc1)OCC | inactive: 96.6% |
| CCOC(=O)CCNCCSP(=O)(O)O | inactive: 99% |
| O=P(Nc1ncccn1)(N1CC1)N1CC1 | inactive: 93.3% |
| CCOP(=O)(Nc1ccccc1Cl)OCC | inactive: 91.8% |
| Cc1ccc(S(=O)(=O)n2cc(C3(O)CC(CC#N)OC3=O)c3cc(Br)ccc32)cc1 (centres undefined) | inactive: 106% |
| CC(C)(NCCCl)C(O)c1ccccc1 (centres undefined) | inactive: 84.2% |
| C[As](=O)(O)c1cccc(C(=O)O)c1 | inactive: 97.1% |
| O=C(N(CCCl)CCCl)C(Cl)(Cl)Cl | inactive: 97.6% |
| Nc1ccc(CCCCOc2ccccc2)cc1 | inactive: 48.5% |
| O=C(O)c1ccccc1[As](=O)(O)O | inactive: 97.8% |
| COC(=O)c1ccc(N2CCOP2(=O)Cl)cc1O (centres undefined) | inactive: 108% |
| Cn1c(=O)c2[nH]c(N(CCCl)CCCl)nc2n(C)c1=O | inactive: 106% |
| CC(C)c1nc(Nc2ccccc2)n(P(=O)(N(C)C)N(C)C)n1 | inactive: 112% |

| Structure (SMILES) | growth |
| --- | --- |
| COC(=O)C1=C(C)O[P@](=O)(OC)CCC1c1ccccc1 (some centres undefined) | inactive: 98.8% |
| O=[N+]([O-])c1cccc(Oc2ccc([N+](=O)[O-])cc2[N+](=O)[O-])c1 | active: -33.4% |
| Fc1cccc(CNCCCl)c1 | inactive: 96.4% |
| CCCNC(=O)c1ccc(N(CCCl)CCCl)cc1 | inactive: 110% |
| CCN(CCCl)CC1COc2ccccc2O1 (centres undefined) | inactive: 107% |
| NP(=O)(N(CCCl)CCCl)N1CC1 (centres undefined) | inactive: 108% |
| COc1cc([N+](=O)[O-])c([N+](=O)[O-])cc1OC | inactive: 90.3% and inactive: 112% |
| [N-]=[N+]=NS(=O)(=O)c1ccc([N+](=O)[O-])cc1 | inactive: 101% |
| CCc1cc(O)c([N+](=O)[O-])c(C)c1[N+](=O)[O-] | inactive: 114% |
| Cc1ccc(S(=O)(=O)N(CCCN)CCCc2c(C)nc(N)[nH]c2=O)cc1 | inactive: 103% |
| ClCCNCc1ccccc1 | inactive: 105% |
| CCN(CCCl)Cc1ccccc1 | inactive: 104% |
| O=[N+]([O-])N1CCCS1(=O)=O | inactive: 99.7% |
| CCN(CCCl)C(Cc1ccccc1)c1ccccc1 (centres undefined) | inactive: 94.8% |
| O=C1OP(=O)(Cl)Oc2ccccc21 (centres undefined) | inactive: 103% |
| ClCCN1Cc2ccccc2C1 | inactive: 91.3% |
| O=[As](O)(c1ccccc1)c1ccc(O)cc1 | inactive: 110% |
